# Ab-14 light chain CDR variants: yeast mating affinities

Target: peptide PDVDLGDISGINAS, taken from heptad repeat 2 (HR2) of SARS-CoV-2 spike.

Each scFv is VH, a (GGGGS)3 linker, VL, as in the parent Ab-14, and differs from it in the CDRs of the light chain only.
VH: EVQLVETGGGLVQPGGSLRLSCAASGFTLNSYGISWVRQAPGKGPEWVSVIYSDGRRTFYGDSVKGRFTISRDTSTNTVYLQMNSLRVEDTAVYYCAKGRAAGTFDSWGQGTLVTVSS
VL: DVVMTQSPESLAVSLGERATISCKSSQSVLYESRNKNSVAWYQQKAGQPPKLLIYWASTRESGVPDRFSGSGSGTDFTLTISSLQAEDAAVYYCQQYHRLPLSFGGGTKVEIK

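Phage display of a naive human antibody library on the peptide gave the parent. The variants were designed computationally from a first round of random CDR variants and then made and measured. Several design methods are mixed in this list. Affinity was read by AlphaSeq, a pooled yeast mating assay with surface-displayed partners. Mating (16 h, 30 °C) was followed by selection of diploids and sequencing of their barcodes. Scores were corrected for input abundance and mapped to Kd with protein pairs of known affinity run in the same pool. Each pool was mated in six replicate cultures.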

Each variant is given by its three light chain CDRs, as the data file delimits them; those of the parent are KSSQSVLYESRNKNSVA, WASTRES, QQYHRLPLS.
Numbers give log10(Kd / nM), so 0 is 1 nM and 3 is 1 µM. Smaller is tighter.
Replicates are averaged; those with no signal do not enter the mean.
A pair that was not seen in any replicate is written "nd"; this usually means weak binding, but a binder can also be missed.
The list is sorted by this average, lowest first, undetected variants last.
Background: pairings of all light chain designs with three empty control strains gave a value in 4% of cases (median 2.64, 5th percentile 1.59). Values in that range, when seen in few replicates, are hard to tell from nonspecific mating. Also given: how often the same scFv was detected with the empty control strains.
The parent sequence was in this pool as ten entries: three were never detected, three once, and four in most replicates, with averages from 0.34 to 2.37.
A sequence measured in both rounds can read differently, since the two assays cover different ranges.
The authors averaged sequences with at least three values out of six and counted those with two or fewer as poor binders.

Result -0.61 (6 of 6 replicates; controls 0 of 18), variant KLSQGWLYESRNKNSVA / NASTRES / QQYHRLPLS.
Result -0.44 (6 of 6 replicates; controls 2 of 18), variant KLSQSVLYESRNKNNVA / HASTRED / QQYHRLPLS.
Result -0.30 (6 of 6 replicates; controls 0 of 18), variant KLSQSVLYESRNKNSVA / NASTREV / QDYHRLPLS.
Result -0.26 (6 of 6 replicates; controls 2 of 18), variant KMSQSDLYESRNKNSVA / NASTRES / QQYHRLPLS.
Result -0.23 (6 of 6 replicates; controls 0 of 18), variant KVSQSVLYESRNKNSVA / NASTREG / QQYHRLPLS.
Result -0.19 (6 of 6 replicates; controls 0 of 18), variant HLSQSVLMESRNKNSVA / DASTRES / QQYHRLPLS.
Result -0.14 (6 of 6 replicates; controls 1 of 18), variant KSSQSWLYESGNKNSVA / GASTREN / QQYHRLPLS.
Result -0.05 (6 of 6 replicates; controls 4 of 18), variant KFSQSVLYESRNKNSVA / NASTRES / QQYHRLPLM.
Result -0.05 (6 of 6 replicates; controls 2 of 18), variant KGSQSVLYESLNKNSVA / QASTRES / QQYSRLPLS.
Result -0.02 (6 of 6 replicates; controls 1 of 18), variant KLSQSVWMLSRNKNSVA / NASYRES / QQYHRLPLS.
Result -0.02 (6 of 6 replicates; controls 0 of 18), variant KLSQSWLYESRNKWSVA / NASQRES / QQYHRLPLS.
Result -0.01 (6 of 6 replicates; controls 0 of 18), variant KSGQGFLYESRNKNSVA / GASMRES / QQYHRLPLS.
Result 0.03 (6 of 6 replicates; controls 1 of 18), variant KVSWSVGYGSRNKNSVA / EASTRES / QQYHRLPLY.
Result 0.14 (6 of 6 replicates; controls 1 of 18), variant KLSQSVLYESRNSNSVA / DASTRES / QQYHRLPLS.
Result 0.15 (6 of 6 replicates; controls 0 of 18), variant TLSQSVDLESVHKNSIA / DLMTRES / QQYHRLPLS.
Result 0.16 (6 of 6 replicates; controls 0 of 18), variant KSSFSYLEESRNKNSVA / EASTRES / QQYHRLPLS.
Result 0.21 (6 of 6 replicates; controls 2 of 18), variant KVSPSVQYEQRQFNSVA / EASTREQ / QQYHRLPLS.
Result 0.22 (6 of 6 replicates; controls 0 of 18), variant KVSQSDLYESRNKNSVA / NGSTRES / QQYHRLPLS.
Result 0.28 (6 of 6 replicates; controls 0 of 18), variant TLGDVTRQESNKKSSIA / DMSNRAD / QQYHRLPLS.
Result 0.34 (6 of 6 replicates; controls 1 of 18), variant HISPSFMVESRLKNSVA / QTETRVE / QQYDRLPLS.
Result 0.36 (6 of 6 replicates; controls 1 of 18), variant KLQFSALMLQRNKNSVA / SASTRES / QQYHRLPLS.
Result 0.51 (6 of 6 replicates; controls 1 of 18), variant MVNGIMDHLSKQRNNVA / ETETRES / QQYDRLPLS.
Result 0.70 (6 of 6 replicates; controls 0 of 18), variant KISQMVNYESTHINAVA / QMSTREE / QQYFRLPLS.
Result 0.79 (6 of 6 replicates; controls 0 of 18), variant KFKAMLNMWARDIHNVA / HADERNV / QQYSRLPLG.
Result 0.81 (6 of 6 replicates; controls 0 of 18), variant NLSIQRQHQNMDANAVA / QTEIREV / QQYAILPLA.
Result 0.92 (6 of 6 replicates; controls 0 of 18), variant TISQMSTLFSQSINNVA / ETSTRLN / QQYDRLPLS.
Result 1.04 (6 of 6 replicates; controls 0 of 18), variant KISQSVGMTSFNKNSVA / ENSTREN / QQYDRLPLS.
Result 1.13 (6 of 6 replicates; controls 1 of 18), variant NMKVGLNFEDINHQAIA / SVDEREK / QQYSRLPLQ.
Result 1.33 (6 of 6 replicates; controls 0 of 18), variant TISQLYNMGQFAINSVA / QASQRNA / QQYDRLPLI.
Result 1.46 (6 of 6 replicates; controls 0 of 18), variant SLMQSVLYESRNKNSVA / HASLREV / QQYHRLPLS.
Result 1.47 (6 of 6 replicates; controls 1 of 18), variant KSSQSVPYEYRNKNSVA / WASTRES / QQYHRLPLS.
Result 1.75 (4 of 6 replicates; controls 0 of 18), variant KSNIEVLYESRNKNSVA / WASTRES / QQYDRLPLS.
Result 1.86 (6 of 6 replicates; controls 1 of 18), variant KLSQVTHYESRNKNSIA / EMVTREK / QQYDRLPLS.
Result 2.37 (6 of 6 replicates; controls 1 of 18), variant KISQMYRYEQQNNSSIA / EANTREQ / QSYHRLPLS.
Result 2.42 (3 of 6 replicates; controls 1 of 18), variant YIAENSDNLYQNLSSVA / ETNQVRQ / QQYHLLPLA.
Result 2.55 (2 of 6 replicates; controls 0 of 18), variant HLGLATMLEEHVRNSVA / NNSTREE / QQYDRLPLS.
Result 2.71 (2 of 6 replicates; controls 1 of 18), variant KLRQSTLYESRNKNSVA / WASTHEL / QQYHRLPLS.
Result 2.91 (6 of 6 replicates; controls 0 of 18), variant HFGLATMLEEYVRNSVA / NNSTREN / QQYDRLPLS.
Result nd (0 of 6 replicates; controls 0 of 18), variant KSSQSYLGESRNKNSVA / WASTRES / QQYHRLKLS.

For reference, 3 entries of the list once more:

Variant NLSIQRQHQNMDANAVA / QTEIREV / QQYAILPLA gave 0.81 (6 of 6 replicates; controls 0 of 18).
Variant KFSQSVLYESRNKNSVA / NASTRES / QQYHRLPLM gave -0.05 (6 of 6 replicates; controls 4 of 18).
Variant HFGLATMLEEYVRNSVA / NNSTREN / QQYDRLPLS gave 2.91 (6 of 6 replicates; controls 0 of 18).

Source: Li et al. 2023 (doi:10.1038/s41467-023-39022-2), MIT Lincoln Laboratory and A-Alpha Bio; data file from the FLAb repository.